# Assay results published in ChEMBL document CHEMBL3616394 (Eur J Med Chem, 2015).
# By UniProt entry, the sequences of proteins in these tests, tags left out.
# UniProt P58154, whole entry: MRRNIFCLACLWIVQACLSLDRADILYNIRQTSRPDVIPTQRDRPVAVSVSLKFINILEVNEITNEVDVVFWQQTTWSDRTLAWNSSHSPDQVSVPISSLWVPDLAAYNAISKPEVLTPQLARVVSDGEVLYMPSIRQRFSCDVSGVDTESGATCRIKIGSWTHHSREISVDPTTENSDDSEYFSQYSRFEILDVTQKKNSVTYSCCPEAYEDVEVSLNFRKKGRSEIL
# Target: Acetylcholine-binding protein (Lymnaea stagnalis, UniProt P58154)
smiles,measurement,value
CN1CCC[C@H]1c1cccnc1 [NICOTINE],Kd,320 nM
